PglD DTNB = inhibitors of Campylobacter jejuni PglD acetyltransferase. purified PglD enzyme, DTNB colorimetric CoA detection. inhibition, % at 12.5 µM. actives 0.098% (n = 360,000). AID 602405; in the data active means inhibition above about 16%, passing the limit was not always enough
UUG fidelity = modulators of start codon recognition fidelity in yeast; activity score, % at 18.7 µM; actives 0.13% (n = 350,000); S. cerevisiae UUG-firefly luciferase reporter, luminescence/redox ratio;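 active = replicate mean at a twofold rise or more, about +100% in these data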;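 note: firefly luciferase made from a UUG start codon reports start codon fidelity; reporter light over untreated wells divided by growth signal over untreated wells; some hits fall short of that in this replicate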
Statin myotox sup = protects C2C12 myotubes from simvastatin toxicity. ATP luminescence, 48 h; scaled: DMSO 0, geranylgeraniol control 100. rescue of ATP level, % at 7.49 µM. actives 0.78% (n = 330,000);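 active means mean ATP rescue above about 67%, or every replicate alone reaching that limit, limit read from the data, passing the limit was not always enough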;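 further: myotubes were challenged with 10 µM simvastatin during compound exposure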
PGC1a acetyl inh = PGC1a acetylation modulation, inhibitor mode; U2OS PGC1a acetylation, AlphaScreen anti-acetyl-lysine; with virally co-expressed GCN5 acetyltransferase; inhibition, % at 15.6 µM; actives 0.17% (n = 350,000);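 active means every replicate shows inhibition of at least 40%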;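 further: 0% = neutral control wells and 100% = positive control wells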
E-sel inducer = E-selectin induction on HUVECs; activation, % at 7.58 µM; P16581; HUVEC E-selectin immunofluorescence imaging; normalized: neutral wells 0, TNF-alpha wells 100; actives 0.37% (n = 260,000);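 active means mean E-selectin-positive cell signal at least 10% of the positive control, reached in at least 60% of replicates, without over 20% cell loss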
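Assay system: HUVEC, human umbilical vein endothelial cells / Amount: 3,000 HUVEC/well / Controls: TNF-alpha positive control, DMSO neutral control / Compound dosing: single concentration / Medium: EGM-2 over gelatin coat / Evaluation: percent E-selectin-positive cells / Signal: immunofluorescence imaging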
esBAF inh = inhibitors of esBAF chromatin remodeling in mouse ES cells | reporter increase, % at 12.5 µM | actives 2% (n = 350,000) | Bmi1-luciferase knock-in reporter, 24 h; 100% = twice the neutral-well signal; in the data active means activation above about 40%;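 further: 0% = median of the plate's neutral control wells and 100% = double that signal; a rise in the Bmi1 reporter signal indicates esBAF inhibition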
The depositor's hits bear a star; / = not tested or not shown. Rows were chosen to be rich in hits. Some 2.8% of all compounds tested hit in one or more screens of this group.

no.	Molecule	UUG fidelity	Statin myotox sup	PglD DTNB
1	O=C(c1cccc(F)c1)N1CCCCN2[C@H](CO)[C@H](c3ccc(-c4cccnc4)cc3)[C@@H]2C1	-14	/	7
2	CC(=O)N(C)C[C@H]1Oc2cc(C#Cc3ccccc3)ccc2S(=O)(=O)N([C@@H](C)CO)C[C@@H]1C	10	-23	0
3	COc1ccc(C(=O)NCCOc2ccccc2Cl)c(OC)c1OC	6	5	4
4	Nc1ccc(S(=O)(=O)NN=CC=Cc2ccccc2[N+](=O)[O-])cc1	/	-3	/
5	NS(=O)(=O)c1ccc(N/N=C/C=C/c2ccccc2[N+](=O)[O-])cc1	-9	-9	-10
6	Cc1ccc(-c2nnc(-c3ccccc3)c(-c3ccccc3)n2)cc1	-9	/	2
7	Nc1nnc(-c2ccccc2)c(-c2ccccc2)n1	-8	121*	2
8	Cc1noc(C)c1S(=O)(=O)Nc1ccc2c(c1)CC(=O)N([C@@H](C)CO)C[C@H](C)[C@@H](CN(C)CC1CC1)O2	-4	10	7
9	C[C@@H]1CN([C@H](C)CO)C(=O)c2cc(C#CC3(O)CCCC3)cnc2O[C@@H]1CN(C)C(=O)Nc1ccc2c(c1)OCO2	13	0	-2
10	COc1cccc(NC(=O)C[C@H]2CC[C@@H]3[C@@H](COc4ccc(NC(=O)c5ccccc5F)cc4C(=O)N3C)O2)c1	4	-14	1
11	CC(=O)Nc1cc(F)c2c(c1F)Cc1cc(F)ccc1-2	-13	-5	-2
12	CC(=O)Nc1cc2c(cc1[N+](=O)[O-])-c1ccc(F)cc1C2	1	-9	9
13	C/C=C/c1ccc2c(c1)[C@@H]1[C@@H](CCN1S(=O)(=O)c1ccccc1C)[C@H](CO)N2	/	/	/
14	C[C@H]1CN([C@@H](C)CO)C(=O)Cc2cc(NC(=O)c3ccncc3)ccc2O[C@H]1CN(C)C(=O)Nc1ccc(C(F)(F)F)cc1	-22	-32	4
15	C[C@@H]1CN([C@@H](C)CO)C(=O)Cc2cc(NC(=O)c3ccncc3)ccc2O[C@@H]1CN(C)S(C)(=O)=O	4	11	1

no.	esBAF inh	E-sel inducer	PGC1a acetyl inh
1	/	0	12
2	1	0	-7
3	68*	1	0
4	3	0	10
5	83*	0	/
6	/	/	/
7	-1	/	14
8	-1	0	3
9	-14	0	3
10	-6	0	-16
11	103*	0	8
12	52*	0	-9
13	/	0	-18
14	-4	33*	-1
15	-2	37*	7

Next section.
no.	Molecule	UUG fidelity	Statin myotox sup	PglD DTNB
16	C[C@H]1CN([C@@H](C)CO)C(=O)Cc2cc(NC(=O)c3ccncc3)ccc2O[C@@H]1CN(C)C(=O)Nc1ccc(C(F)(F)F)cc1	-1	6	0
17	COc1ccc(NC(=O)N(C)C[C@@H]2Oc3ccc(NC(=O)c4ccncc4)cc3CC(=O)N([C@@H](C)CO)C[C@@H]2C)cc1	-8	9	-2
18	COc1ccc(NC(=O)N(C)C[C@H]2Oc3ccc(NC(=O)c4ccncc4)cc3CC(=O)N([C@H](C)CO)C[C@@H]2C)cc1	3	-26	1
19	COc1ccc(NC(=O)N(C)C[C@@H]2Oc3ccc(NC(=O)c4ccncc4)cc3CC(=O)N([C@H](C)CO)C[C@@H]2C)cc1	-9	6	7
20	COc1ccc(NC(=O)N(C)C[C@@H]2Oc3ccc(NC(=O)c4ccncc4)cc3CC(=O)N([C@@H](C)CO)C[C@H]2C)cc1	-7	3	-5
21	COc1ccc(NC(=O)N(C)C[C@H]2Oc3ccc(N(C)C)cc3CC(=O)N([C@H](C)CO)C[C@@H]2C)cc1	/	-13	-4
22	COc1ccc(NC(=O)N(C)C[C@H]2Oc3ccc(NC(=O)c4ccncc4)cc3CC(=O)N([C@@H](C)CO)C[C@H]2C)cc1	-2	7	-1
23	O=C(NC[C@H]1CC[C@H]2[C@H](CN2Cc2nccs2)O1)C1CCC1	/	/	/
24	Cc1cccc(C(=O)NNS(=O)(=O)c2ccc(F)cc2)c1	-24	-1	-2
25	Cc1cccc(C(=O)NNC(=O)c2ccc(F)cc2)c1	/	/	/
26	NC(=O)C1CCN(c2nc(-c3ccccc3-c3ccccc3)cs2)CC1	3	2	1
27	COc1ccc(-c2csc(N3CCC(C(N)=O)CC3)n2)cc1	-4	-17	-3
28	Cc1ccc(-c2csc(N3CCC(C(N)=O)CC3)n2)cc1	-10	3	-1
29	CC(=O)c1cccc(-c2csc(N3CCC(C(N)=O)CC3)n2)c1	-11	-1	8
30	NC(=O)C1CCN(c2nc(-c3cccc(Cl)c3)cs2)CC1	1	0	-3

no.	esBAF inh	E-sel inducer	PGC1a acetyl inh
16	-1	-1	-10
17	1	81*	1
18	0	41*	16
19	-1	226*	38
20	-2	72*	-5
21	0	327*	-4
22	-3	17	-28
23	/	/	7
24	42*	/	-1
25	/	/	1
26	11	139*	-4
27	50*	0	6
28	27	0	/
29	-3	0	-5
30	49*	0	-9

Among those listed so far, 3 have a nitro group on carbon.
no.	Molecule	UUG fidelity	Statin myotox sup	PglD DTNB
4	Nc1ccc(S(=O)(=O)NN=CC=Cc2ccccc2[N+](=O)[O-])cc1	/	-3	/
5	NS(=O)(=O)c1ccc(N/N=C/C=C/c2ccccc2[N+](=O)[O-])cc1	-9	-9	-10
12	CC(=O)Nc1cc2c(cc1[N+](=O)[O-])-c1ccc(F)cc1C2	1	-9	9

no.	esBAF inh	E-sel inducer	PGC1a acetyl inh
4	3	0	10
5	83*	0	/
12	52*	0	-9

Continuation:
no.	Molecule	UUG fidelity	Statin myotox sup	PglD DTNB
31	C/C=C/c1cnc2c(c1)C(=O)N([C@@H](C)CO)C[C@H](C)[C@H](CN(C)S(=O)(=O)c1ccc(F)cc1)O2	17	41	6
32	O=C1CN(S(=O)(=O)Cc2ccccc2)C[C@@H]2[C@@H](c3ccc(C#CC4CC4)cc3)[C@H](CO)N12	/	/	/
33	C[C@@H]1CCCCO[C@@H](CN(C)S(=O)(=O)c2ccc(Cl)cc2)[C@H](C)CN([C@@H](C)CO)C(=O)c2cc(NC(=O)Nc3ccccc3)ccc2O1	-11	/	-9
34	CCCNC(=O)N1CC2(C1)[C@H](c1ccccc1)[C@H](CO)N2Cc1ccc(F)cc1	/	/	/
35	O=C(O)C1=C[C@@H](c2ccc3c(c2)Cc2ccccc2-3)C[C@@H](OCc2ccc(CO)cc2)O1	-4	/	1
36	CC(=O)Nc1sc2c(c1C#N)CCC(C)C2 (stereo not drawn)	-8	111*	6
37	Cc1cc(C(=O)Nc2sc3c(c2C#N)CCC(C)C3)cs1 (stereo not drawn)	-12	-58	-5
38	CC1CCc2c(sc(NC(=S)NC(=O)c3ccccc3)c2C#N)C1 (stereo not drawn)	/	/	/
39	C[C@H]1CN([C@@H](C)CO)C(=O)c2c(c3ccccc3n2C)-c2ccccc2CO[C@@H]1CN(C)C(=O)Nc1ccccc1	42	/	8
40	Cc1ccc(S(=O)(=O)N(C)C[C@H]2Oc3ccc(NC(=O)CCCCCC(=O)Nc4ccccc4N)cc3C(=O)N([C@H](C)CO)C[C@@H]2C)cc1	/	/	/
41	CC(=O)Oc1ccc(/C=C2/CCc3ccccc3C2=O)cc1	-67	5	3
42	Cc1ccsc1/C=C1\CCc2ccccc2C1=O	/	0	/
43	O=C1/C(=C\c2ccc3ccccc3c2)CCCc2ccccc21	-31	-67	-3

no.	esBAF inh	E-sel inducer	PGC1a acetyl inh
31	1	0	1
32	/	0	5
33	-1	0	-9
34	/	0	-22
35	/	/	/
36	18	/	8
37	52*	/	-5
38	/	4	3
39	-1	0	-1
40	/	2	-5
41	52*	3	/
42	-34	/	1
43	30	/	6

Source: PubChem
